Source: PubChem BioAssay AID624464 (National Center for Advancing Translational Sciences (NCATS), 2012)
The list shows a part of the results, in another mix than the full data. Activity calls are given as the source filed them. No stated cut-off is given here; in the data, active means potentiation above about 50%; inconclusive means mostly about 30% to 49%; inactive means weaker than that.

Protein sequences, listed by entry. Tags and fused reporters are not part of them.
UniProt P14416, whole entry: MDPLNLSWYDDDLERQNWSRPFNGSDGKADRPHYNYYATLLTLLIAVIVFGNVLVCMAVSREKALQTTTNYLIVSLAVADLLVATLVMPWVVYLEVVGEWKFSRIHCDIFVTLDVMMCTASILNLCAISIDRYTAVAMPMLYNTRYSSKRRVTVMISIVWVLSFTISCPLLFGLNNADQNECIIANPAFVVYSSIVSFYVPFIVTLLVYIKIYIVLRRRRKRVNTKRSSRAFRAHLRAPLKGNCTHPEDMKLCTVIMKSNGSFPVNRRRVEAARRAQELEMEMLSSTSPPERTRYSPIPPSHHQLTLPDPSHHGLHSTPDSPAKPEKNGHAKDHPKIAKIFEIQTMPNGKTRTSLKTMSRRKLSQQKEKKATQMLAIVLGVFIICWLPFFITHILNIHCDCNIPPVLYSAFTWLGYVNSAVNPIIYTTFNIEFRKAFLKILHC

target: D(2) dopamine receptor (Homo sapiens) (UniProt P14416); assay: Beta-Arrestin HTS for Positive Allosteric Modulators of the Human D2 Dopamine Receptor: Potentiators; conditions: DiscoveRx D2 beta-arrestin cells, luminescence, 90 min; stronger effect = higher value; 100% = 57 uM dopamine signal
How it was run: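 D2 cells co-treated with compound plus 50 nM dopamine (EC20) for 90 min at 37 deg C to detect potentiation. Beta-arrestin recruitment was read as enzyme-fragment luminescence after 1 h at ambient temperature. Full response was set by 57 uM dopamine.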

Structure (SMILES) | potentiation
COc1ccccc1OP(=O)(Nc1ccc(C)cn1)Oc1ccccc1OC | inactive: 0.405%
COc1ccc(OP(C)(=O)Nc2ccccn2)cc1 (centres undefined) | inactive: 0.469%
Cc1ccc(OP(=O)(Nc2nccs2)Oc2ccc(C)cc2)cc1 | inactive: -10.5%
Oc1ccccc1CNc1ccccn1 | inactive: -2.01%
O=C(NC(Sc1ccncn1)C(Cl)(Cl)Cl)c1ccccc1 (centres undefined) | inactive: 12.4%
Nc1cc(N)c2nonc2c1[N+](=O)[O-] | inactive: 14.1%
Cc1c(NP(C)(=O)Oc2ccc(C(C)C)cc2)c(=O)n(-c2ccccc2)n1C (centres undefined) | inactive: 0.342%
O=[N+]([O-])c1cc([N+](=O)[O-])c(Nc2ccccn2)c([N+](=O)[O-])c1 | inactive: 13.9%
CC(C)CC(=O)NC(Sc1ccc(Cl)cc1)C(Cl)(Cl)Cl (centres undefined) | inactive: 5.3%
O=[N+]([O-])C1C(O)C(O)C([N+](=O)[O-])C(O)C1O (centres undefined) | inactive: -3.48%
CCc1ccc(OP(C)(=O)O)cc1 | inactive: -18%
CP(=O)(Nc1ccccn1)Oc1ccccc1 (centres undefined) | inactive: -12.5%
COc1ccccc1OP(C)(=O)Nc1ccc(C)cc1C (centres undefined) | inactive: -4.6%
O=P(Nc1nc2ccc(Cl)cc2s1)(c1ccccc1)c1ccccc1 | inactive: -4.48%
CN(C)P(=O)(N(C)C)n1c(Nc2ccccc2)nnc1-c1ccccc1 | inactive: -10.6%
Cc1cc(C)cc(OP(C)(=O)Nc2cccc(C(F)(F)F)c2)c1 (centres undefined) | inactive: -2.32%
CC(=O)Nc1ccc([As](=O)(O)O)cc1 | inactive: -6.86%
O=C(O)c1ccccc1[As](=O)(O)O | inactive: -8.44%
CCCC1OP(N)(=O)OCC1CC (centres undefined) | inactive: -6.49%
COc1ccc(OP(C)(=O)Nc2ccccc2Br)cc1 (centres undefined) | inactive: -9.95%
Cc1cc(SC(NC(=O)c2ccc(F)cc2)C(Cl)(Cl)Cl)ncn1 (centres undefined) | inactive: -13%
CCOP(=O)(Nc1ccccc1)OCC | inactive: -2.85%
COc1ccccc1OP(C)(=O)Nc1ccc(C)c(C)c1 (centres undefined) | inactive: -7.49%
CN(C(=O)Cc1ccc(Cl)c(Cl)c1)[C@H]1CCCC[C@@H]1N1CCCC1 | inactive: -15.5%
Cc1ccc(NP(=O)(Oc2ccccc2F)Oc2ccccc2F)nc1 | inactive: -10.1%
Nc1cccc2ccc([As](=O)(O)O)cc12 | inactive: 20.6%
CCCCCCCCCCCCCCCC1C[N+](C)(C)CCOP(C)(=O)O1 (centres undefined) | inactive: -23.6%
CP(=O)(Nc1ccc(Cl)cc1Cl)Oc1ccccc1 (centres undefined) | inactive: 15.3%
CP(=O)(OCCOc1ccccc1)OCCOc1ccccc1 | inactive: -6.39%
